AlphaSeq binding of Ab-14 heavy chain variants to a spike HR2 peptide

The target is the same throughout: PDVDLGDISGINAS, from the HR2 region of SARS-CoV-2 spike.

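These sequences belong to a second round, designed from the earlier measurements on random variants of the parent. Group labels follow the data file (Ctrl: baseline library sampled from a position-specific scoring matrix, with some repeated check sequences; Rand: our label for a block that the file lists under HC and that is probably the random mutants of the ten best first-round binders; GP: Gaussian process model; GPLM: also part of the Gaussian process libraries; HC: hill climbing; Gen: genetic algorithm; Gibbs: Gibbs sampling; a sequence that several methods proposed may carry one label only). Affinity was read by AlphaSeq, a pooled yeast mating assay with surface-displayed partners. Pairs that bind mate more often; barcode pairs of the diploids are counted by sequencing. Each replicate has its own calibration line, from reference interactions of the BCL2 family. Each pool was mated in six replicate cultures.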

Parent: Ab-14, a human scFv built as VH, three GGGGS repeats, VL. Only the CDRs of the heavy chain vary.
VH: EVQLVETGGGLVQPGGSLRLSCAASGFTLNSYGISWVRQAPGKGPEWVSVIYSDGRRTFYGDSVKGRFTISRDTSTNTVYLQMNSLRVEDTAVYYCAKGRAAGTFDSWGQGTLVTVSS
VL: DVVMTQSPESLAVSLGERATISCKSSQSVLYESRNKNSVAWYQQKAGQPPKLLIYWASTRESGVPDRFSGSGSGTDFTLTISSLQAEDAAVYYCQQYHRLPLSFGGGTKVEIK

Changes read parent residue, position, new residue, counted from the first residue of the VH shown. Variants here have at most six changes. Kd is apparent (estimated from mating counts) and averaged on the log scale over replicates with a signal. Smaller is tighter. A pair that was not seen in any replicate is written "no signal"; this usually means weak binding, but a binder can also be missed.

The variant T28E/S31E/G61S/S63A/A101C [GP_HC] showed 410 nM (4 of 6 replicates).
The variant G61S/A101S [GPLM_Gibbs] showed 39 nM (6 of 6 replicates).
The variant T28D/I51L/A101C/G103V/D106C [Ctrl] showed no signal (0 of 24 replicates).
The variant T28N/G61S/R100Q/A101T [GPLM_Gibbs] showed 2.1 nM (6 of 6 replicates).
The variant S31E/A101V/S107D [GP_HC] showed 550 pM (6 of 6 replicates).
The variant G26P/G61D/R100Q/A101L [GPLM_HC] showed 22 nM (5 of 6 replicates).
The variant S31E/Y32L/G61T/A101F [Rand] showed 110 nM (4 of 6 replicates).
The variant S53A/D106W/S107K [GP_HC] showed no signal (0 of 6 replicates).
The variant R100Y/A101G/T104F [Ctrl] showed no signal (0 of 6 replicates).
The variant F27K/R100Q/A101T/S107V [GP_Gibbs] showed no signal (0 of 6 replicates).
The variant T28S/N30E/G61E/S107Q [Ctrl] showed 16 nM (6 of 6 replicates).
The variant T28G/S31E/G61H/R100S [GP_Gibbs] showed 410 pM (6 of 6 replicates).
The variant T28D/S31E/R100E/S107K [GP_Gen] showed 870 nM (1 of 6 replicates).
The variant Y32W [Ctrl] showed no signal (0 of 6 replicates).
The variant T28D/S31Q/R100Q [GPLM_Gibbs] showed 19 nM (6 of 6 replicates).
The variant S53A/D62G [Ctrl] showed no signal (0 of 6 replicates).
The variant T28V/G61I/R100Q [GPLM_Gibbs] showed no signal (0 of 6 replicates).
The variant T28R/G61D/R100Q/A101L [GPLM_HC] showed 67 nM (6 of 6 replicates).
The variant T28D/S31E/G103S/T104V [Ctrl] showed 37 nM (3 of 6 replicates).
The variant T28S/S31D/A101K/D106I [GP_HC] showed 63 nM (1 of 6 replicates).
The variant T28N/G61A/S63K/A101T [GP_Gen] showed 5.9 nM (5 of 6 replicates).
The variant T28N/G61I/A101H [GP_Gen] showed 44 nM (1 of 6 replicates).
The variant S63E/R100Q [Ctrl] showed 78 nM (3 of 6 replicates).
The variant L29C/S31Q/G61S/T104F [Rand] showed no signal (0 of 6 replicates).
The variant T28N/F59M/A101T [GP_Gen] showed 3.4 nM (1 of 6 replicates).
The variant S31E/R100H/A101F [GP_HC] showed 520 pM (6 of 6 replicates).
The variant R56Y/G61T [Ctrl] showed 4.6 nM (1 of 6 replicates).
The variant T28S/S63H/R100Q [GPLM_Gen] showed 130 nM (6 of 6 replicates).
The variant T28G/I34S [Ctrl] showed no signal (0 of 6 replicates).
The variant S31E/F59G/G61Q/R100K/A102R [Ctrl] showed no signal (0 of 6 replicates).

The first 2 entries again:

| changes | group | Kd (apparent) | seen in |
|---|---|---|---|
| T28E/S31E/G61S/S63A/A101C | GP_HC | 410 nM | 4/6 |
| G61S/A101S | GPLM_Gibbs | 39 nM | 6/6 |

A sequence measured in both rounds can read differently, since the two assays cover different ranges. A sequence that the file lists under several names has all its replicates pooled. The parent sequence was in this pool as ten entries: three were never detected, three once, and four in most replicates, with averages from 2.2 nM to 240 nM. Nonspecific signal, from three strains lacking the peptide, appeared in 1% of pairings of all heavy chain designs, centred on 120 nM (5% of these signals below 7.0 nM); values are not corrected for it. The authors' rule: three or more of the six replicates give a measured affinity, fewer mean a poor binder.

Reference: Li et al. 2023, doi:10.1038/s41467-023-39022-2. File: FLAb, binding data.